The values below come from ChEMBL document CHEMBL5042543, “Bridged Piperidine Analogues of a High Affinity Naphthalene-Based P2Y14R Antagonist” (J Med Chem, 2022).

A short description of data set [1]: Aqueous solubility of the compound at pH 7.4. The conditions noted are these: buffer.
In another data set the target is T1, P2Y purinoceptor 14 (Homo sapiens, UniProt Q15391).
T1 sequence (Q15391 whole entry): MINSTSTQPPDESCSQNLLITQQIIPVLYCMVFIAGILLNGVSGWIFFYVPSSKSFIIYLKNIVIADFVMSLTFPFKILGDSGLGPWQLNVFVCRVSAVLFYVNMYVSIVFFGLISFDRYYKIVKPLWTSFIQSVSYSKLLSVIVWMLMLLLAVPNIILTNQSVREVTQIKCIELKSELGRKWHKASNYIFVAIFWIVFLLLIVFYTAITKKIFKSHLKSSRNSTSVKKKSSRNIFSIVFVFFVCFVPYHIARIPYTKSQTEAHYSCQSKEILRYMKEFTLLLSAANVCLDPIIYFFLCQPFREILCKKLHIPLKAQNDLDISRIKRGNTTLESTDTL
In words: cell-based.

Molecules are shown by their SMILES. Values after ≈ are worked out from the molar mass of the structure shown.

One may read the solubility as how much of the substance goes into solution per volume. The low end stands for a poorly soluble substance, the high end for a readily soluble substance. The IC50 is the concentration at which inhibition is half-maximal. A lower IC50 goes with higher potency. For `O=C(O)c1cc(-c2ccc([C@@]3(O)C[C@H]4CC[C@@H](C3)N4)cc2)c2ccc(-c3ccc(C(F)(F)F)cc3)cc2c1`, the solubility in data set [1] came out at 0.75 µg/mL (≈ 1.45 µM). At P2Y purinoceptor 14, this compound yielded an IC50 of 117 nM. As for `O=C(O)c1cc(-c2ccc(C3(O)[C@H]4CC[C@H]3CN(Cc3ccccc3)C4)cc2)c2ccc(-c3ccc(C(F)(F)F)cc3)cc2c1` (some centres undefined), the IC50 on P2Y purinoceptor 14 amounted to 466 nM. In turn, `O=C(O)c1cc(-c2cc(C34CCN(CC3)CC4)ccc2Br)c2ccc(-c3ccc(C(F)(F)F)cc3)cc2c1` had an IC50 on P2Y purinoceptor 14 of 8900 nM.
